The subject of the assay is Acanthamoeba castellanii trophozoites. The assay can be described thus: CellTiter-Glo 2.0 trophocidal assay, A. castellanii. The format is cell-based. As to conditions: SI = (IC50 A549)/(IC50 Amoeba). How it is done: This isolate was also purchased from ATCC. Trophozoites were routinely grown axenically at 27 °C in Protease Peptone-Glucose Media (PG) in non-vented 75 cm^2 tissue culture flasks (Olympus, El Cajon, CA, USA), until the cells were 80–90% confluent. For sub-culturing, cells were mechanically harvested to detach the cells from the culture flasks. The cells were collected by centrifugation at 4000 rpm at 4 °C.
The trophocidal activity of compounds was assessed using the CellTiter-Glo 2.0 luminescent viability assay (Promega, Madison, WI, USA), as previously described. Trophozoites were routinely cultured as described above and only logarithmic trophozoites were used. […] Initially all compounds were assessed in a single-point drug screen at 10 and 1 μM, as previously described. […] We used this process to reduce the number of potential false positives. Drugs were cherry-picked, dissolved in the media specific to each parasite, and assessed in twofold serial dilutions from the highest concentration of 10 μM. All assays were incubated at each of the parasites’ representative growth temperatures, described above, for 72 h. […] The adenosine triphosphate (ATP) luminescent signal (relative light units; RLUs) was measured at 490 nm with a SpectraMax I3X plate reader (Molecular Devices, Sunnyvale, CA, USA). […]
For orientation: ATP-based viability assays read luminescence as a measure of living cells.

Consider `CC(=O)N1CCN(c2ccc(OCC3COC(Cn4ccnc4)(c4ccc(Cl)cc4Cl)O3)cc2)CC1` (stereo not shown) [Ketoconazole], for which the “Selectivity Index (A549 IC50/A. castellanii IC50)” value was no less than 8.10.

The values above are taken from paper PMC7344389, “Discovery of Anti-Amoebic Inhibitors from Screening the MMV Pandemic Response Box on Balamuthia mandrillaris, Naegleria fowleri, and Acanthamoeba castellanii” (Pathogens, 2020).
